Results taken from ChEMBL document CHEMBL2203147 (ACS Med Chem Lett, 2011).

Protein sequences, listed by entry. Tags and fused reporters are not part of them.
UniProt P61169, whole entry: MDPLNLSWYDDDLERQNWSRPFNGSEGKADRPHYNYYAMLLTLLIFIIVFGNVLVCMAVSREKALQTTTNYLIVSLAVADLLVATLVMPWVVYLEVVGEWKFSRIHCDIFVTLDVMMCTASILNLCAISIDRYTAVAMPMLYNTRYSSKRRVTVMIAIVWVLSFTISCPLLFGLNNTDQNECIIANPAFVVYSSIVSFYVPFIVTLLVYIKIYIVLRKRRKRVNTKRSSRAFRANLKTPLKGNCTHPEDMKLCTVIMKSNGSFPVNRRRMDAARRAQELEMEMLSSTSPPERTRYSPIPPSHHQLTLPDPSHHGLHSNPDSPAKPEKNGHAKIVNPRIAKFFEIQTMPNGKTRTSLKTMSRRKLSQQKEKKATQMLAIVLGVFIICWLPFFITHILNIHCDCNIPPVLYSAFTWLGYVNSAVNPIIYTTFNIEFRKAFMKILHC
UniProt P19020, whole entry: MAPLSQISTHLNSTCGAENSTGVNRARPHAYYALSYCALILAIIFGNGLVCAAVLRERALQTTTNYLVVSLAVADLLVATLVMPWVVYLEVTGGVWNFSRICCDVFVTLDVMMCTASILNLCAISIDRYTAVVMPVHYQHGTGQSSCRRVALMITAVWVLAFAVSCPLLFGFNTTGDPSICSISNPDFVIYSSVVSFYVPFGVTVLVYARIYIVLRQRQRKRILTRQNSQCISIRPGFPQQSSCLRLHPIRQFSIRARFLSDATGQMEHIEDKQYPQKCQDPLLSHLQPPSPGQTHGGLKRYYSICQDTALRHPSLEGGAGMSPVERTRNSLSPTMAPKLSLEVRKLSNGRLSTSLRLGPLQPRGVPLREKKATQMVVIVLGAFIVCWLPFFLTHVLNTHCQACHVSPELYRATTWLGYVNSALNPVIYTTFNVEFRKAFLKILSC
UniProt P35462, whole entry: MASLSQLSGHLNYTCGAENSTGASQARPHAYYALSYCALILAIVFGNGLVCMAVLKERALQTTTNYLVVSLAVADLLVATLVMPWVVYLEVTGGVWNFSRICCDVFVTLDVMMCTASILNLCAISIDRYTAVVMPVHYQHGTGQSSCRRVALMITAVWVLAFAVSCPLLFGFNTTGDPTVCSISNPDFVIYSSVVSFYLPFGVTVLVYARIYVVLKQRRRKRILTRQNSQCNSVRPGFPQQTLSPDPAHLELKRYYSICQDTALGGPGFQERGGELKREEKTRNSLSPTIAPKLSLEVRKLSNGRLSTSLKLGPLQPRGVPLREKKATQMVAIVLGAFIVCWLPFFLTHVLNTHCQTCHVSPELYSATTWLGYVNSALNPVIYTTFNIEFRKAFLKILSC

What was measured:
[1] = target: D(2) dopamine receptor (Rattus norvegicus, UniProt P61169)
[2] = target: D(3) dopamine receptor (Rattus norvegicus, UniProt P19020)
[3] = target: D(3) dopamine receptor (Homo sapiens, UniProt P35462); test: biochemical

Compound | Ki [1] [nM] | Ki [2] [nM] | Ki [3] [nM]
CCCN(CC[C@]1(O)C[C@@H](NC(=O)c2ccc3ccccc3c2)C1)[C@H]1CCc2nc(N)sc2C1 | 725 | 0.4 | 
CCCN(CC[C@]1(O)C[C@H](NC(=O)c2ccc3ccccc3c2)C1)[C@H]1CCc2nc(N)sc2C1 | 2570 | 0.5 | 3.61
